Assay [1] deals with Retinoic acid receptor alpha (Homo sapiens) (UniProt P10276). Kind of assay: Agonist activity at human GAL4-fused RARalpha LBD expressed in human HEK293T cells cotransfected with pFR-Luc and pRL-SV40 assessed as increase in luciferase activity at 1 uM incubated for 16 hrs by Dual-Glo luciferase assay relative to control. Format: cell-based.
The target in assay [2] is T1, Thyroid hormone receptor beta (Homo sapiens) (UniProt P10828).
T1 sequence (whole entry): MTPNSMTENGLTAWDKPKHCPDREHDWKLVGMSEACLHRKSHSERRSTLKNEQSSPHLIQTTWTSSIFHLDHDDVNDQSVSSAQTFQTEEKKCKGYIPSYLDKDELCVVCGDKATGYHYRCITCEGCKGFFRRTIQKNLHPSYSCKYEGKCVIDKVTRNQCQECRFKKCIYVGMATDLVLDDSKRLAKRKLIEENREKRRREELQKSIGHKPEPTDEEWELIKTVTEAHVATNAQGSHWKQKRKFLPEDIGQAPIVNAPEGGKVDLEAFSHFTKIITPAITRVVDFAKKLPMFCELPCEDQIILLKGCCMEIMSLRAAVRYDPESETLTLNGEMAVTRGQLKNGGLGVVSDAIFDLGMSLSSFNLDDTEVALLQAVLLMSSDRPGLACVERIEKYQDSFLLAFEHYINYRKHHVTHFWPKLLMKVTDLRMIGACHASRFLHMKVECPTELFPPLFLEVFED
Nature of the assay: Agonist activity at human GAL4-fused THRbeta LBD expressed in human HEK293T cells cotransfected with pFR-Luc and pRL-SV40 assessed as increase in luciferase activity at 1 uM incubated for 16 hrs by Dual-Glo luciferase assay relative to control. Format: cell-based.

By UniProt entry, the sequences of proteins in these tests, tags left out. Where a name states a change or a piece, a line headed by the entry shows the natural chain unless it says otherwise.
UniProt P10276, whole entry: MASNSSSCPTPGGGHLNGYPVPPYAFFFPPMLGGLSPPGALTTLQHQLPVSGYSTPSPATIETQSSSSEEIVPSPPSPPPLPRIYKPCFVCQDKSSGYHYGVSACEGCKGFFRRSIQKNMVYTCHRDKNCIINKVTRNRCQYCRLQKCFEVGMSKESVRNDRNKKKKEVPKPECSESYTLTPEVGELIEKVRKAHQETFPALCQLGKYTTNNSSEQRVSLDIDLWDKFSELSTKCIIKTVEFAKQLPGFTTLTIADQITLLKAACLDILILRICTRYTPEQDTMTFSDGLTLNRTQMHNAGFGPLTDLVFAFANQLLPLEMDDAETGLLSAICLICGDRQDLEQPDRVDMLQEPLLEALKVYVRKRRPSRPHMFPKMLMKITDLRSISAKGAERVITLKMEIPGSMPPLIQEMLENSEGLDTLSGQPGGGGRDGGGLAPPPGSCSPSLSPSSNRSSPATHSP
UniProt P55055, whole entry: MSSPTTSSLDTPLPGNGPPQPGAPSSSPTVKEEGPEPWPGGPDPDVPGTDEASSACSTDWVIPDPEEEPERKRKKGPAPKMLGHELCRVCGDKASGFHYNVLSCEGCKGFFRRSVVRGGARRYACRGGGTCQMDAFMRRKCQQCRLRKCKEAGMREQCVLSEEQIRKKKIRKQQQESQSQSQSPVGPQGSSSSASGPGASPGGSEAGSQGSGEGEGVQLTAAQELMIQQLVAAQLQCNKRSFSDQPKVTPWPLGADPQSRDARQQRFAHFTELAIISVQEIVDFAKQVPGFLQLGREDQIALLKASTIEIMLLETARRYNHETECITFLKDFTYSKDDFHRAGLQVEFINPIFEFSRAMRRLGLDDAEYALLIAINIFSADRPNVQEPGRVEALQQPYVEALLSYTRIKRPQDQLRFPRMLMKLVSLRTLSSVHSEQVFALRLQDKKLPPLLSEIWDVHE
UniProt P10826, whole entry: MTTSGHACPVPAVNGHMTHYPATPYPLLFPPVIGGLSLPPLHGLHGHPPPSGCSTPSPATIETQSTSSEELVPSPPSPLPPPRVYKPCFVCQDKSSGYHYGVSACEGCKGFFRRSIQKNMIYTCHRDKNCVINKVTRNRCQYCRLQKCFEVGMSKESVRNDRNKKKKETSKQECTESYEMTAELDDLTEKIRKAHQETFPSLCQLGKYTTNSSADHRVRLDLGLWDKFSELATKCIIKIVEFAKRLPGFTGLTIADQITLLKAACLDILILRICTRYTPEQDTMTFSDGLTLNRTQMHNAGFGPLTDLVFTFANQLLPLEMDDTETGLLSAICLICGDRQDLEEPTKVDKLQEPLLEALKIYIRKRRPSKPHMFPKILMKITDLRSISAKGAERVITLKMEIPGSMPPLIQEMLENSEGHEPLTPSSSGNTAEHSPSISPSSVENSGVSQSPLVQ
UniProt P13631, whole entry: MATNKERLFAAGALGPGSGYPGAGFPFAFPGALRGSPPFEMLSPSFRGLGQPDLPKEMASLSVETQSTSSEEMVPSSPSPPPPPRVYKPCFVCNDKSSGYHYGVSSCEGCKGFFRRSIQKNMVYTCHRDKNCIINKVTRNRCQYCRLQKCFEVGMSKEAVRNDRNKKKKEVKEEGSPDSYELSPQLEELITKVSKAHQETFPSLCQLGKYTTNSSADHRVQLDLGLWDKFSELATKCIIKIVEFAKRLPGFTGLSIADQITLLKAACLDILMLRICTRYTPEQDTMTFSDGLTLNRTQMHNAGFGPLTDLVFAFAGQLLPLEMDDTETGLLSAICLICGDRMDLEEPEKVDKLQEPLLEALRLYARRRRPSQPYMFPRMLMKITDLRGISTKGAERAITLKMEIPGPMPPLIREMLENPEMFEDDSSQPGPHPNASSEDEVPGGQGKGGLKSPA
UniProt P37231: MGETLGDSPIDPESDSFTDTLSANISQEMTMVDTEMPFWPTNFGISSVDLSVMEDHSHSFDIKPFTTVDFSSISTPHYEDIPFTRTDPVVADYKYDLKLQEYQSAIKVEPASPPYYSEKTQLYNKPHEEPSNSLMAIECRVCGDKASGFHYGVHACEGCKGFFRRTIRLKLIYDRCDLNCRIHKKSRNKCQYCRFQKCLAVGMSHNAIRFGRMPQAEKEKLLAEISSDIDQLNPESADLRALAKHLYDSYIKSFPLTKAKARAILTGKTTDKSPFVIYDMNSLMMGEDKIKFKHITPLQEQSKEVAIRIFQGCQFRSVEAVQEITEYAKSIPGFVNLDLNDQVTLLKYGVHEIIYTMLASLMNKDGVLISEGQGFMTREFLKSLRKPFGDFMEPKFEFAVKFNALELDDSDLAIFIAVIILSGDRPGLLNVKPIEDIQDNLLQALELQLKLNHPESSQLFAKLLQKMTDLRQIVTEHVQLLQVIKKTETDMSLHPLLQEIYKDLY
UniProt Q13133, whole entry: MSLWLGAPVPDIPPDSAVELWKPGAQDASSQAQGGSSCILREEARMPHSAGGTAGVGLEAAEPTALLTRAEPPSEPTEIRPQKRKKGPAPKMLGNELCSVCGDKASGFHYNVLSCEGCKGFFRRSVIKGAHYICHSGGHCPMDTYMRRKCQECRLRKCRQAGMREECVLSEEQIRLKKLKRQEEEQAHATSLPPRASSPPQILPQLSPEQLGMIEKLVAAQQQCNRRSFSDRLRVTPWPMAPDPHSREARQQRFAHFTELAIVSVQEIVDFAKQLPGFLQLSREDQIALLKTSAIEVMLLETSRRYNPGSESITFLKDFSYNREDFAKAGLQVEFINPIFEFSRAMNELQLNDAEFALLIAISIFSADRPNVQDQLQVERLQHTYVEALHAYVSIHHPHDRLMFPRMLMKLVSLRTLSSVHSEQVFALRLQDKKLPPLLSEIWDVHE

Assay [3] concerns the target Oxysterols receptor LXR-beta (Homo sapiens) (UniProt P55055). Nature of the assay: Agonist activity at human GAL4-fused LXRbeta LBD expressed in human HEK293T cells cotransfected with pFR-Luc and pRL-SV40 assessed as increase in luciferase activity at 1 uM incubated for 16 hrs by Dual-Glo luciferase assay relative to control. Format: cell-based.
Assay [4] deals with T2, Retinoic acid receptor RXR-alpha (Homo sapiens) (UniProt P19793).
T2 sequence (whole entry): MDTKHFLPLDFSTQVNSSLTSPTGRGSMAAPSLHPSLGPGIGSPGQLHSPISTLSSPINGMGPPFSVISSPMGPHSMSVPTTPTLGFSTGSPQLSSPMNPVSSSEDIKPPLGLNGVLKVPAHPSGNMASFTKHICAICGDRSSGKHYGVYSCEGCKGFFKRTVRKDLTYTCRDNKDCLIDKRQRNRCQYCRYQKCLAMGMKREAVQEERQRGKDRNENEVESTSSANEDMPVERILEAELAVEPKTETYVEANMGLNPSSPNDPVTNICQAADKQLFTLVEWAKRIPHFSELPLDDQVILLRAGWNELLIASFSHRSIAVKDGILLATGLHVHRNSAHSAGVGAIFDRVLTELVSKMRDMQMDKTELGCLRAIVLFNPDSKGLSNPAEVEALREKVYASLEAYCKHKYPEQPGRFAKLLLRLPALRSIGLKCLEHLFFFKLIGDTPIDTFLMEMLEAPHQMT
Kind of assay: Agonist activity at human RARalpha in human Adipose tissue derived mesenchymal stem cells assessed as increase in adipogenesis at 1 uM incubated for 13 days with media exchanged every 48-72 hrs by Oil-red O staining based analysis. To be noted: Adipose tissue derived mesenchymal stem cell, time 13.0 day.

Assay [5] has as its target Retinoic acid receptor beta (Homo sapiens) (UniProt P10826). Nature of the assay: Agonist activity at human GAL4-fused RARbeta LBD expressed in human HEK293T cells cotransfected with pFR-Luc and pRL-SV40 assessed as increase in luciferase activity at 1 uM incubated for 16 hrs by Dual-Glo luciferase assay relative to control. The class given is cell-based.
For assay [6], the target named is T3, Peroxisome proliferator-activated receptor alpha (Homo sapiens) (UniProt Q07869).
T3 sequence (whole entry): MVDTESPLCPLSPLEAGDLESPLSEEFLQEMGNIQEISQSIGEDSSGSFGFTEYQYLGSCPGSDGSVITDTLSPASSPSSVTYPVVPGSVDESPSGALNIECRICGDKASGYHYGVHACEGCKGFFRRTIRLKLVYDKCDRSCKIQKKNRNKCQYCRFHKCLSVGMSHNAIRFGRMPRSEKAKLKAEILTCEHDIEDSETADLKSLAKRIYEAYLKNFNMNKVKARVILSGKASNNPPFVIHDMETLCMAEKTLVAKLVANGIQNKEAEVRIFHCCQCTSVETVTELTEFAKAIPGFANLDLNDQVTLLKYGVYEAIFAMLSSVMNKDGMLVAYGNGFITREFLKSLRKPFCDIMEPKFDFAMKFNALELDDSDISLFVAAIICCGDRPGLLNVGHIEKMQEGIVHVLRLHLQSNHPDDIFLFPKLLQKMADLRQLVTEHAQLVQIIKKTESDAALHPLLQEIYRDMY
Kind of assay: Agonist activity at human GAL4-fused PPARalpha LBD expressed in human HEK293T cells cotransfected with pFR-Luc and pRL-SV40 assessed as increase in luciferase activity at 1 uM incubated for 16 hrs by Dual-Glo luciferase assay relative to control. The class given is cell-based.

Assay [7] deals with Retinoic acid receptor gamma (Homo sapiens) (UniProt P13631). Kind of assay: Agonist activity at human GAL4-fused RARgamma LBD expressed in human HEK293T cells cotransfected with pFR-Luc and pRL-SV40 assessed as increase in luciferase activity at 1 uM incubated for 16 hrs by Dual-Glo luciferase assay relative to control. Format: cell-based.
Assay [8] concerns the target Peroxisome proliferator-activated receptor gamma (Homo sapiens) (UniProt P37231). Nature of the assay: Agonist activity at human GAL4-fused PPARgamma LBD expressed in human HEK293T cells cotransfected with pFR-Luc and pRL-SV40 assessed as increase in luciferase activity at 1 uM incubated for 16 hrs by Dual-Glo luciferase assay relative to control. Format: cell-based.

Assay [9] concerns the target Oxysterols receptor LXR-alpha (Homo sapiens) (UniProt Q13133). Nature of the assay: Agonist activity at human GAL4-fused LXRalpha LBD expressed in human HEK293T cells cotransfected with pFR-Luc and pRL-SV40 assessed as increase in luciferase activity at 1 uM incubated for 16 hrs by Dual-Glo luciferase assay relative to control. Format: cell-based.

Active and inactive are the calls of the source. No cut-off for these calls is given here.

On to `Cc1cc(COc2ccc(C)c3c2CCC3)ccc1CCC(=O)O`, for which the Activity amounted to 1% in assay [1]; 1% in [2]; 2% in assay [3]; 1% in assay [5]; 3% in [6]; 1% in [7]. For the same compound, the Activity in assay [8] and in assay [9] was 3% in each case. Besides, in assay [4], the result was inactive.

Source of the values: ChEMBL document CHEMBL5316269, “Rational Design of a New RXR Agonist Scaffold Enabling Single-Subtype Preference for RXRα, RXRβ, and RXRγ” (J Med Chem, 2023).
